Values quoted from earlier work, collected in patent publication US20110257220A1, “3,11 b-cis-Dihydrotetrabenazine for the Treatment of Schizophrenia and Other Psychoses” (CAMBRIDGE LABORATORIES (IRELAND) LIMITED, priority 2005, published 2011).

By UniProt entry, the sequences of proteins in these tests, tags left out.
UniProt Q01827, whole entry: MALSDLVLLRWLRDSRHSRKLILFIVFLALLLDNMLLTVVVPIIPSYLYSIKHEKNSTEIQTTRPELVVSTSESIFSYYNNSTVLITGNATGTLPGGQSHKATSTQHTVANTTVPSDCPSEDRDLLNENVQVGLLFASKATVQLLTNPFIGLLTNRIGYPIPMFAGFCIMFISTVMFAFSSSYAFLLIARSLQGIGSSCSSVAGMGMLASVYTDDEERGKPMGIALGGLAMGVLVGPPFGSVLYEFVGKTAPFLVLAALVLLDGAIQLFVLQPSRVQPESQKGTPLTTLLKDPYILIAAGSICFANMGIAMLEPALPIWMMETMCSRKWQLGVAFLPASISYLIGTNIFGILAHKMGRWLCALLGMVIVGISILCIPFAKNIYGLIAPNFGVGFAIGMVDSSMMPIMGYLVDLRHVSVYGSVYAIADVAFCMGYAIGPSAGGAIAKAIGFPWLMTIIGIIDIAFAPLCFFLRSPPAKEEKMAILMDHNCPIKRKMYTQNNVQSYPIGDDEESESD

Biological target: VMAT2 (Rattus norvegicus, UniProt Q01827)
Settings: in vitro; Kilbourn et al.; cited from earlier work

COc1cc2c(cc1O[11CH3])CCN1C[C@@H](CC(C)C)[C@H](O)C[C@H]21 [(+)-α-[^11C]dihydrotetrabenazine]
Ki for [3H]methoxytetrabenazine relative to Ki of the (−)-α isomer: > 2000 fold
